The test deals with OCI cell line.

Consider `[N-]=[N+]=Nc1c2ccccc2nc2cc([N+](=O)[O-])ccc12`, for which the IC50 was 9.5 µM.

The values above are taken from patent US10183912B2, “HDMX inhibitors and their use for cancer treatment” (priority 2014, dated 2019).
